This is a selection; strong and weak results do not stand in their true shares. The source made the active and inactive calls. Cut-off read from the data, not from the text of the source: active = inhibition above about 30%; inactive = the rest.
target: Ubiquitin carboxyl-terminal hydrolase 28 (Homo sapiens) (UniProt Q96RU2); assay: inhibitors of human USP28 deubiquitinase (AID 1645857); settings: purified USP28, Ub-rhodamine cleavage fluorescence, 30 min; at 25 µM; active compounds read high

By UniProt entry, the sequences of proteins in these tests, tags left out. Where a name states a change or a piece, a line headed by the entry shows the natural chain unless it says otherwise.
UniProt Q96RU2: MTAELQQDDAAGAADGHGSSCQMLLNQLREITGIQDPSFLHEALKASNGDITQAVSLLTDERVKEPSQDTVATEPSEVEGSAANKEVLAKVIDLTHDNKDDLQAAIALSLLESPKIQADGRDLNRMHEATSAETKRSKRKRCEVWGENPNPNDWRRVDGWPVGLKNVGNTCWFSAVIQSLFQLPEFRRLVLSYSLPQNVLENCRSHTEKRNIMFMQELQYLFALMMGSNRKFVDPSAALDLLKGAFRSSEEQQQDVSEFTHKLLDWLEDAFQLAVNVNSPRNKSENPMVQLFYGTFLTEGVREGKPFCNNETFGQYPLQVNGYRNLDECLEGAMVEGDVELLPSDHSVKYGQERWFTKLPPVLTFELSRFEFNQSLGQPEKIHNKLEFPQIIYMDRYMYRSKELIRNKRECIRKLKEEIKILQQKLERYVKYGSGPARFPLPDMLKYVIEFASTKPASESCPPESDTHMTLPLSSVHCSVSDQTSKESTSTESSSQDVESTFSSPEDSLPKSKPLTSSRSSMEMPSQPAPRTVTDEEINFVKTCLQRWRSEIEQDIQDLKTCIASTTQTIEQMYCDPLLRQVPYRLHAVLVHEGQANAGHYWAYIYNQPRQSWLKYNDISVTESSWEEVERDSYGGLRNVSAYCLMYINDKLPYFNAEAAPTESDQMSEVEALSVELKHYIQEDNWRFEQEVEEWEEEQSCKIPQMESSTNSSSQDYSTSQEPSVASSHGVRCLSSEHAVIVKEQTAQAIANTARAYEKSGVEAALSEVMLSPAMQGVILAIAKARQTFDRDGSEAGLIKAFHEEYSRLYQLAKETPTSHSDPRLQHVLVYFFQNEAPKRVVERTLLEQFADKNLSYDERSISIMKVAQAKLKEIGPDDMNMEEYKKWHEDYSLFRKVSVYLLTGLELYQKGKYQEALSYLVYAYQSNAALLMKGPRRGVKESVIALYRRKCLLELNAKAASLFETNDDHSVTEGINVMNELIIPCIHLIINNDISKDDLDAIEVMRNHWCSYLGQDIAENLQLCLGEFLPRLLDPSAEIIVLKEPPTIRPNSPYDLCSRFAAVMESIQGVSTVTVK

Q: Which inhibition does the source give for `CS(=O)(=O)c1ccc(C(=O)N(Cc2ccco2)C2CCN(CCc3ccccn3)CC2)cc1` here?
A: Its inhibition is inactive: -35.1%.

Q: How did the inhibition turn out when `N#Cc1cccc(C(=O)N(Cc2cccnc2)C2CCN(CCc3ccccn3)CC2)c1` was run?
A: Its inhibition is inactive: -25.8%.

Q: For `CS(=O)(=O)c1ccc(C(=O)N(Cc2cccnc2)C2CCN(CCc3ccc(Cl)cc3)CC2)cc1`, which inhibition is on record?
A: Its inhibition is inactive: -82.6%.

Q: `N#Cc1cccc(C(=O)N(Cc2ccco2)C2CCN(CCc3ccccn3)CC2)c1` was tested. Which inhibition did it give?
A: The inhibition was inactive: 0.0874%.

Q: For `CN1C(=O)C2C(NC(=NCc3ccco3)N2CCc2ccccc2)N(C)C1=O` (stereo unspecified), which inhibition is on record?
A: The inhibition was inactive: -8.13%.

Q: For `COc1ccc(CCN2CCC(N(Cc3ccco3)C(=O)c3ccc(S(C)(=O)=O)cc3)CC2)cc1`, which inhibition is on record?
A: The inhibition was inactive: -25.6%.

Q: How did the inhibition turn out when `N#Cc1cccc(C(=O)N(Cc2ccco2)C2CCN(CCc3ccc(Cl)cc3)CC2)c1` was run?
A: Its inhibition is inactive: -20.2%.

Q: How did the inhibition turn out when `Cc1[nH]c2c(N(C(=O)Nc3ccccc3)C3CCN(Cc4ccccc4)CC3)cccc2c1C` was run?
A: The inhibition was inactive: -13%.

Q: Which inhibition does the source give for `COc1ccc(CCN2CCC(N(Cc3cccnc3)C(=O)c3cccc(C#N)c3)CC2)cc1` here?
A: The inhibition was inactive: -32%.

Q: For `O=C(c1ccc2c(c1)OCO2)N(Cc1ccco1)C1CCN(CCc2ccccn2)CC1`, which inhibition is on record?
A: The inhibition was inactive: -21.9%.

Q: `O=C(COC(=O)C(O)(c1ccccc1)c1ccccc1)NCc1ccc2c(c1)OCO2` was tested. Which inhibition did it give?
A: The inhibition was inactive: -8.78%.

From PubChem BioAssay AID1645857 (Buhrlage Lab, Dana-Farber Cancer Institute and Novartis …, 2021)
